Results: patent publication US5861426A, “Nitro compounds of the formula A-Xi -NO2 and their compositions having anti-inflammatory, analgesic and anti-thrombotic activities” (Nicox S.A., priority 1994, dated 1999)

What was measured:
cyclo-oxygenase = experiment: Anti-cyclooxygenase activity; assay type: cell-based; details: in vitro, 10^-5 to 10^-7 molar range; natural product = 1.0
gastropathy = experiment: Gastric tolerance, severity of induced gastropathy; details: rats, oral 3 to 30 mg/Kg in carboxymethylcellulose; natural product = 1.0
carrageenin-oedema = experiment: Anti-inflammatory activity, carrageenin-oedema method; assay type: in vivo; details: rats, oral 3 to 30 mg/Kg in carboxymethylcellulose; natural product = 1.0
Swiss mice = experiment: Analgesic activity (Hendershot et al.); assay type: in vivo; details: oral 3 to 30 mg/Kg in carboxymethylcellulose, natural product = 1.0
[1] = test system: human platelets stimulated by thrombin; experiment: Platelet anti-aggregating activity in vitro; assay type: cell-based; details: 10^-5 to 10^-7 molar range, natural product = 1.0

CC(=O)Oc1ccccc1C(=O)O [ASPIRIN, acetylsalicylic acid, reference compound]
1.0: anti-cyclooxygenase (I), potency ratio versus natural product (cyclo-oxygenase) | gastrointestinal tolerance (III) (toxicity), potency ratio versus natural reference product (gastropathy) | anti-inflammatory properties (I), potency ratio versus natural reference product (carrageenin-oedema) | analgesic properties (II), potency ratio versus natural reference product (Swiss mice) | platelet anti-aggregating (II), potency ratio versus natural product [1]
